Results published in patent publication US20150004189A1 (published 2015).

Molecular target: T1, HLA-DP DPB1*0201 (human)
T1 chain 1: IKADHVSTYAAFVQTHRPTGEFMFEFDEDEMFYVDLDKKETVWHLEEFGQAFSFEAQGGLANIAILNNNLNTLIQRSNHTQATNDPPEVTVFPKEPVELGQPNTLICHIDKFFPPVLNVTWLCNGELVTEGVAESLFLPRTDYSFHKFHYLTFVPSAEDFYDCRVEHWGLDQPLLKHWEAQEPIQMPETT
T1 chain 2: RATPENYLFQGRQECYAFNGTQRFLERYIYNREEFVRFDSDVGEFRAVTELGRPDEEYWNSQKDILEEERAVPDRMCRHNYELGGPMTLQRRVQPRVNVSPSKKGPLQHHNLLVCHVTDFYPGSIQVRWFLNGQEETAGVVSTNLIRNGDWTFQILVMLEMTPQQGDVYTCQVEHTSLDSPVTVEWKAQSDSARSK
Assay: inhibition of radiolabeled peptide binding to purified HLA-DP

- IC50: 8.26 µM
B1: Der f 1 (136-150) peptide 3324.0666 (peptide)
peptide: FSGVAATESAYLAYR
